This is an account of results in US20210355166A1, “ANALGESICS AND METHODS OF USE THEREOF” (priority 2018, published 2021).

Protein sequences, listed by entry. Tags and fused reporters are not part of them.
UniProt P33535, whole entry: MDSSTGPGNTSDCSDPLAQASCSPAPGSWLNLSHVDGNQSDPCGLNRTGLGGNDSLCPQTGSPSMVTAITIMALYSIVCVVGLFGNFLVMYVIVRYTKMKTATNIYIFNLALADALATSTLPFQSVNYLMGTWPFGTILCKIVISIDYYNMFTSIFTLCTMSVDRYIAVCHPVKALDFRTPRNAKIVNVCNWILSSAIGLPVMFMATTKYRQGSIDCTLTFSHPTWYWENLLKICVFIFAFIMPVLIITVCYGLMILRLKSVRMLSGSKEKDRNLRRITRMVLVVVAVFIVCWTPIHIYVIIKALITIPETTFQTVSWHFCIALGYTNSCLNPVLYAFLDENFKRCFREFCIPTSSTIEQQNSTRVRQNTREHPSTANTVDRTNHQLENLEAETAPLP
UniProt P35372, whole entry: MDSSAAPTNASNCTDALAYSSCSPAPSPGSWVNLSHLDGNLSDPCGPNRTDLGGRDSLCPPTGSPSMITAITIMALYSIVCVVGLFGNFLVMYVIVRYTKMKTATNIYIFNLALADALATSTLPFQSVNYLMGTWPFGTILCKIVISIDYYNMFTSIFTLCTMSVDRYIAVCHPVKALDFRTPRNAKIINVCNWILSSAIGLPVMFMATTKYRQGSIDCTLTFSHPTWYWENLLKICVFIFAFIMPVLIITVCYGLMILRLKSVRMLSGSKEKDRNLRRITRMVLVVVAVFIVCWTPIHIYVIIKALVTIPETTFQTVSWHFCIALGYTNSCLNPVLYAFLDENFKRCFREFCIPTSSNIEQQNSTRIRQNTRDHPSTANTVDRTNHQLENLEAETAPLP

Each structure is given as a SMILES string.

The target in one assay is T1, MOPr (Rattus norvegicus, UniProt P33535).
T1 construct: which natively express MOPr but not DOPr or KOPr; from tissue; host or cells: brain slices with locus coeruleus neurons, male Sprague Dawley rats
The experiment in a line: Patch-clamp recordings of GIRK currents in rat locus coeruleus (LC) neurons. In kind it is cell-based. The note with it: 10-30 μM. The procedure: Briefly, rats were anesthetized with isoflurane and decapitated. The brain was dissected and mounted in a vibratome chamber (Leica biosystem, VT100, Wetzlar, Germany) in order to prepare horizontal brain slices (280 μm). […] Slices were incubated in warm oxygenated ACSF for at least 30 min before recording. Slices were transferred to the recording chamber while warm ACSF (34° C.) was superfused at a rate of ˜2 mL/min. Whole-cell voltage-clamp recordings were acquired from LC neurons with Multiclamp 700B amplifier (Molecular Devices, CA, USA) at holding potential of −60 mV. […] Continuous current recordings were collected in chart mode at 500 Hz and filtered at 20-50 Hz using Axograph X (Axograph Scientific, Sydney, Australia). Series resistance monitored throughout the experiments and remained <15 MΩ; otherwise the data were discarded. Outward current was measured as the difference between baseline current and peak current of drug application.
Background: In patch-clamp work, channel activity is measured electrically.

The next assay has as its target T2, human MOPr (hMOPr) (Homo sapiens, UniProt P35372).
T2 construct: expressed in transfected cells; host or cells: HEK cells
Briefly: Inhibition of forskolin induced cAMP formation in HEK cells expressing hMOPr. The note with it: 10 μM. In kind it is cell-based. The procedure: Procedure for measuring the level of intracellular cAMP produced upon modulation of adenylate cyclase activity by G-protein-coupled receptors (GPCRs). To test the functional interaction between opioids, and opioid-like compounds, and specific opioid GPCRs by measuring changes in intracellular cAMP levels relative to basal levels. The assay can measure agonist and antagonist activity on GPCRs by stimulating cells to either increase or decrease intracellular cAMP levels.
The assay is performed in a 384-well plate and each data point is performed in triplicate. The test compounds should be analyzed on the same plate as controls and cAMP standards. The number of compounds to be screened for activity will determine the volume of reagents and cells required for each experiment. The test compounds, controls and cAMP standards can be added to the plate in advance or while the cells are incubating with stimulation buffer. The plate should be sealed with TopSeal adhesive sealing film to avoid evaporation.
Assay background: Detection of cAMP is based on the competition between intracellular cAMP and biotinylated cAMP linked streptavidin-coated donor beads for anti-cAMP conjugated acceptor beads. When the donor and acceptor beads are in close proximity a signal emitted at 520-620 nm is detected using the Envision multilabel plate reader. […]
(Changes in cAMP serve as a functional read-out for many G protein-coupled receptors.)

Take `CC(C)[C@H](NC(=O)[C@@H](NC(=O)[C@@H](N)Cc1ccc(O)cc1)C(C)C)C(=O)N[C@@H](Cc1ccccc1)C(N)=O` [3f, H-YVVF-NH2]: the “activity in LC neurons” value on MOPr was “inactive”.
On the same count and under the same terms, the value for `CC(C)[C@H](NC(=O)[C@@H](NC(=O)[C@@H](N)Cc1ccc(O)cc1)C(C)C)C(=O)N[C@@H](Cc1ccccc1)C(=O)O` [3e, H-YVVF-OH] was “inactive”.
`CC(C)[C@H](NC(=O)[C@@H](NC(=O)[C@@H](N)Cc1ccccc1)C(C)C)C(=O)N[C@@H](Cc1ccccc1)C(N)=O` [1h, H-FVVF-NH2]: the “activity in cAMP screen” value on human MOPr (hMOPr) is reported as “less active”.
